Where only a bound is given, the exact number is not on record here.

The values that follow come from patent publication US12606546B2, “Small molecule inhibitors of calcium channel activity and uses thereof” (Arizona Board of Regents on Behalf of the University of …, priority 2020, dated 2026).

This assay deals with high voltage activated calcium channels. Description: Fura-2AM calcium imaging, 90 mM KCl-evoked Ca2+ influx in DRG neurons.

`C[C@@H](c1ccccc1)n1nnnc1[C@H](c1ccsc1)N1CCC(n2c(=O)[nH]c3ccccc32)CC1` [5bl, 1-{1-[(S)-{1-[(1S)-1-phenylethyl]-1H-1,2,3,4-tetrazol-5-yl}(thiophen-3-yl)methyl]piperidin-4-yl}-2,3-dihydro-1H-1,3-benzodiazol-2-one]: the “inhibition of Ca2+ influx when DRGs were depolarized with 90 mM KCl” value was less than 25%.
